Source: article PMC3909101, “Chemical Rescue and Inhibition Studies to Determine the Role of Arg301 in Phosphite Dehydrogenase” (PLoS ONE, 2014)
Only a part of the results on these compounds is given; other tests are left out.

Sequences of proteins named here, by UniProt entry; tags and fusion partners are left off. Residues count along the entry.
UniProt O69054, 1-329 D13E/M26I/V71I/E130K/Q132R/Q137R/I150F/R301A limits assumed: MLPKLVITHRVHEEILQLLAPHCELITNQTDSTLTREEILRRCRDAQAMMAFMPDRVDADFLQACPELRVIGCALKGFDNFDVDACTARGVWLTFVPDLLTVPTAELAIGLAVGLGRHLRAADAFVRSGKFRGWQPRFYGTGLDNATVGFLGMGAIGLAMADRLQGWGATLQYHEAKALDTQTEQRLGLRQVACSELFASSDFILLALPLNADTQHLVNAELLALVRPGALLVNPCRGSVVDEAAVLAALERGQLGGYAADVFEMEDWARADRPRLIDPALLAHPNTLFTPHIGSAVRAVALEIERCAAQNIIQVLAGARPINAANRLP

Biological target: 17X-PTDH-R301A (Stutzerimonas stutzeri (Pseudomonas stutzeri), UniProt O69054, D13E/E130K/I150F/M26I/Q132R/Q137R/R301A/V71I, form not given)
Assay: Chemical rescue experiments with 17X-PTDH-R301A
Assay type: biochemical, Pseudomonas stutzeri WM88
Details: exogenous reagent; unsuccessful ones tested at 20–100 mM depending on solubility

N=C(N)N[N+](=O)[O-]
Rescue of activity of the R301A mutant: not observed
